# Test results reported in patent publication US5441941A, “1,2-dihydroellipticines with activity against CNS specific cancer” (The United States of America as represented by the …, priority 1993, dated 1995).
# Tested on: DMS 114
# Assay: cells
# Conditions: Homo sapiens, DMS-114, read-out: Percent Growth
structure (smiles),measurement,value
COc1ccc2[nH]c3c(C)c4c(c(C)c3c2c1)CN(C)C=C4 [Formula VII],activity at 0.01 µM,79%
